Laboratory results as given in US5641861A, “μopioid receptor ligands: agonists and antagonists” (Torrey Pines Institute For Molecular Studies, priority 1995, dated 1997).

By UniProt entry, the sequences of proteins in these tests, tags left out. Where a name states a change or a piece, a line headed by the entry shows the natural chain unless it says otherwise.
UniProt P33535, whole entry: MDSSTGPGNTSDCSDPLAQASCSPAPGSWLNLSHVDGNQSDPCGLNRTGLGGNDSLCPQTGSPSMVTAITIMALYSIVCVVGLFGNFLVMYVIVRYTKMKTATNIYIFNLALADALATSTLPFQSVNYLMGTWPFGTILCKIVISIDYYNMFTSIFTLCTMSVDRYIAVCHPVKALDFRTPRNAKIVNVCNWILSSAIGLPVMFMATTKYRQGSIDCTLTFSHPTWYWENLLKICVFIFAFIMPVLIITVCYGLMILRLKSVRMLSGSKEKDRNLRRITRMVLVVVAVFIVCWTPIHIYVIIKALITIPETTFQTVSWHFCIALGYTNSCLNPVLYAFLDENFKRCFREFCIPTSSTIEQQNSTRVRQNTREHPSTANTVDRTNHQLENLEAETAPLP
UniProt P33533, whole entry: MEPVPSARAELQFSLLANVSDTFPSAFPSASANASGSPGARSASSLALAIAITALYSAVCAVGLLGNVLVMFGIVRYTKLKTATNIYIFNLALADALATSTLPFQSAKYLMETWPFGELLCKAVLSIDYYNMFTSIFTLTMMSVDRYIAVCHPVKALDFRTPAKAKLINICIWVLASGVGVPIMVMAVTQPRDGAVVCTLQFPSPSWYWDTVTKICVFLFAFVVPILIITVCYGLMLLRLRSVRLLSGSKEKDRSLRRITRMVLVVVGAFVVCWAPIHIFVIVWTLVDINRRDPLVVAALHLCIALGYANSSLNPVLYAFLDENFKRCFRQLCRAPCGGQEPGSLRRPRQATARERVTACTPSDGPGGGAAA
UniProt P41144: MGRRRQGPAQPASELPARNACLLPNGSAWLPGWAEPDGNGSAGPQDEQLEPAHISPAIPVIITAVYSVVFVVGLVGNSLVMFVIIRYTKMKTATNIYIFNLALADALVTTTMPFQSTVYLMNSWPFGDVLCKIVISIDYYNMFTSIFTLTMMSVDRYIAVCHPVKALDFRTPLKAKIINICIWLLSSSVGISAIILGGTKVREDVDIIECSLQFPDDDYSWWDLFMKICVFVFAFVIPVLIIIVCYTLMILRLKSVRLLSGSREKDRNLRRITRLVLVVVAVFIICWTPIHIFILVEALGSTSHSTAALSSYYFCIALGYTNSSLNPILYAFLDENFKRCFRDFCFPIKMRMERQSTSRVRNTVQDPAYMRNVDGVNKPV

Key:
Assay type in all cases: binding
μ receptor = target: T1, μ receptor (Rattus norvegicus, UniProt P33535); experiment: Radioreceptor assay selective for the mu receptor ([3H]-DAMGO); settings: Table 10, rat brain homogenates
T1 construct: radioreceptor assay using rat brain homogenates and [^3 H]-DAMGO as radioligand; tissue Harlan Bioproducts for Science; host or cells: rat brain (cerebellum removed), crude membrane homogenate
Method: Following incubation, the suspensions were centrifuged as above, the resulting pellets resuspended in 100 volumes of Tris buffer and the suspensions combined. Membrane suspensions were prepared and used in the same day.
Binding assays were carried out in polypropylene tubes. […] Bound radioactivity was counted on a Beta-plate Liquid Scintillation Counter (Life Technologies, Gaithersburg, Md.) and expressed in counts per minute (cpm). […] Competitive inhibition assays were performed as above using serial dilutions of the peptide mixtures. IC50 values were then calculated using the software […] (ISI, San Diego, Calif.).

δ receptors = target: T2, δ receptors (Rattus norvegicus, UniProt P33533); experiment: Radioreceptor assay selective for δ receptors ([3H]-naltrindole); settings: Table 10; [3H]-naltrindole 0.5 nM, rat brain homogenates
T2 construct: Radioreceptor assays selective for δ receptors were performed using rat brain homogenates; tissue Harlan Bioproducts for Science; host or cells: rat brain crude membrane homogenate
Method: Radioreceptor assays selective for δ receptors were performed using rat brain homogenates as above and [^3 H]-naltrindole (0.5 nM, specific activity 34.7 Ci/mmol) as radioligand in Tris buffer containing 100 μM phenylmethylsulfonyl fluoride (PMSF), 5 mMMgCl2 and 1 mg/ml bovine serum albumin (BSA), pH 7.4. Samples were incubated for 2.5 hr. Standard curves were prepared using 0.10-3200 nM [^3 H]-D-Pen2, Pen5 ]-enkephalin ([^3 H]-DPDPE).

κ receptors = target: T3, κ receptors (Cavia porcellus, UniProt P41144); experiment: Radioreceptor assay selective for κ receptors ([3H]-U69,593); settings: Table 10; [3H]-U69,593 3 nM, guinea pig brain homogenates
T3 construct: tissue homogenates prepared from guinea pig brains (cortex and cerebellum); tissue Harlan Bioproducts for Science; host or cells: guinea pig brain (cortex and cerebellum) homogenate
Method: Assays selective for κ receptors were carried out using [^3 H]-U69,593 (3 nM, specific activity 62 Ci/mmol) as the radioligand and tissue homogenates prepared from guinea pig brains (cortex and cerebellum) using Tris buffer containing 100 μM PMSF, 5 mMMgCl2 and 1 mg/ml BSA, pH 7.4. Sample tubes were incubated for 2.5 hr.

Trp--Trp--Pro--Arg--NH2 [SEQ ID NO. 69]
IC50 (μ receptor): 0.01 µM
IC50 (δ receptors): 17.4 µM
IC50 (κ receptors): 20.6 µM
